Results on two compounds are retold here after ChEMBL document CHEMBL1156283, “Discovery and optimization of 2-(4-substituted-pyrrolo[2,3-b]pyridin-3-yl)methylene-4-hydroxybenzofuran-3(2H)-ones as potent and selective ATP-competitive inhibitors of the mammalian target of rapamycin (mTOR)” (Bioorg Med Chem Lett, 2010).

Each structure is given as a SMILES string.

The target in assay [1] is Vascular endothelial growth factor receptor 2 (Homo sapiens, UniProt P35968). The experiment in a line: Inhibition of VEGFR2.
Assay [2] addresses Proto-oncogene tyrosine-protein kinase Src (Homo sapiens, UniProt P12931). Description: Inhibition of SRC.
The target of assay [3] is Rho-associated protein kinase 1 (Homo sapiens, UniProt Q13464). Description: Inhibition of ROCK1.
Assay [4] deals with Platelet-derived growth factor receptor alpha (Homo sapiens, UniProt P16234). Description: Inhibition of PDGFRalpha.
Assay [5] addresses Serine/threonine-protein kinase mTOR (Homo sapiens, UniProt P42345). Description: Inhibition of mTOR.

A word on the IC50: it is the concentration needed to halve the response being measured. The low end stands for greater potency, the high end for weaker potency. Consider `Cn1cc(/C=C2\Oc3cccc(O)c3C2=O)c2c(-c3ccc(C(=O)NCCO)cc3)ccnc21`, for which the IC50 in assay [1], in assay [2], in assay [3] and in assay [4] was 50 µM in each case.
Turning to `Cn1cc(/C=C2\Oc3cc(O)cc(O)c3C2=O)c2c(-c3ccccc3)cccc21`, in assay [5], the half-inhibitory concentration (IC50) is 0.033 µM.
